The record followed here is US10195311B2, “Local delivery of drugs from self assembled coatings” (Interface Biologics, Inc., priority 2009, dated 2019).

This data set can be described thus: Oligofluoro as solubilizing agent, drug release from coated nylon films in water. It counts as physicochemical. Particulars: drug at 4 wt %, nylon film, water 24 hours. On the procedure:
Several water insoluble drugs, paclitaxel (PTX), rapamycin, and ibuprofen were complexed with Compound 24 at 4 wt %. Coating was made on nylon film by drop casting method. Control films with drug coated only was also prepared in a same manner. Coated nylon films were incubated in water for 24 hours to measure drug release. Percentage drug released in water: Compound 24+PTX=94, PTX control=11; Compound 24+rapamycin=79, rapamycin control=4; Compound 24+ibuprofen=80, ibuprofen control=40.

Turning to `CC(C)Cc1ccc(C(C)C(=O)O)cc1` (stereo not shown) [ibuprofen control, ibuprofen], the “Percentage drug released in water” value was 40%.
